Legend:
[1] = tested on: EGFR^T790M/L858R-driven LUAD; experiment: Tumoral area and histopathology of lungs in EGFR^T790M/L858R; CCSP-rtTA mice; assay type: in vivo
Method: Tet-on-EGFR^T790M/L858R; CCSP-rtTA and the Kras^G12D/+; Stat3^f/f mice were already described (11,12,29).
The induction of the tumors in EGFR model was done by administration of Doxycyline pellets in the diet (A03 at 1 g/Kg Doxycycline Hyclate, Safe, France) in mice during 8 weeks and maintained all time during the treatments with the different drugs.
Osimertinib (Cliniscience, France) was given by gavage early in the morning 5 days a week (from Monday to Friday) by gavage at 5 mg/kg/day. Antibodies diluted in PBS against NOTCH1 (NRR1) and NOTCH3 (NRR3) were administered by IP injection. […]
For routine histological analysis, lung lobes were fixed in 10% buffered formalin (Sigma, USA), embedded in paraffin. […] For quantification of tumors in the H&E, the five lobes of the lungs (4 right and 1 left) were placed in a similar plane and a single section across all the lobes was examined by H&E. Tumoural- and total lung area were measured using Image J software of the whole slide scan. For pathological analysis of H&E, classical citoarchitectural histological features such as invasion or high mitotic rate were applied by the expert pathologist M. C., to identify and quantify the adenocarcinomas. […] For each tumor, five high-magnification fields were scored. We scored on average 1500 cells per tumor in two categories: positive or negative also using Image J software. […]

[2] = tested on: EGFR^T790M/L858R-driven tumors; experiment: Immunohistochemistry of tumors from treated EGFR^T790M/L858R mice; assay type: in vivo; conditions: compared to vehicle treated mice
Method: Osimertinib (Cliniscience, France) was given by gavage early in the morning 5 days a week (from Monday to Friday) by gavage at 5 mg/kg/day. Antibodies diluted in PBS against NOTCH1 (NRR1) and NOTCH3 (NRR3) were administered by IP injection. NRR1 at 5 mg/kg/day every 5 days and NRR3 at 15 mg/kg/day every Monday and Thursday respectively, in both cases during 5 weeks. Mice were scarified 4 h after the last treatment and samples were obtained for immunohistochemical and western blot analysis.
For routine histological analysis, lung lobes were fixed in 10% buffered formalin (Sigma, USA), embedded in paraffin. Consecutive 3 μm-thick sections were cut and stained with hematoxylin and eosin (H&E) or used for IHC. For quantification of tumors in the H&E, the five lobes of the lungs (4 right and 1 left) were placed in a similar plane and a single section across all the lobes was examined by H&E. Tumoural- and total lung area were measured using Image J software of the whole slide scan. For pathological analysis of H&E, classical citoarchitectural histological features such as invasion or high mitotic rate were applied by the expert pathologist M. C., to identify and quantify the adenocarcinomas. […] For each tumor, five high-magnification fields were scored. We scored on average 1500 cells per tumor in two categories: positive or negative also using Image J software. […]

`COc1cc2ncnc(Nc3ccc(F)c(Cl)c3)c2cc1OCCCN1CCOCC1` [gefitinib] was tested, and the tumoral area ([1]; five weeks of treatment, DBZ/gefitinib experiment, control group 42%) was 52%, the “amount of LUADs on average per mouse” value ([1]; histopathological analysis, controls or gefitinib 31) was “did not affect the amount of LUADs” and the “IHC staining of proteins (HES1, Ki67, pERK, pAKT)” value [2] was “did not impact on the staining of any proteins”.

Source: US12485126B2, “Combination for treating cancer” (INSERM (Institut National de la Santé et de la Recherche …, priority 2018, dated 2025)
